Protein sequences, listed by entry. Tags and fused reporters are not part of them.
UniProt P42336, whole entry, species assumed: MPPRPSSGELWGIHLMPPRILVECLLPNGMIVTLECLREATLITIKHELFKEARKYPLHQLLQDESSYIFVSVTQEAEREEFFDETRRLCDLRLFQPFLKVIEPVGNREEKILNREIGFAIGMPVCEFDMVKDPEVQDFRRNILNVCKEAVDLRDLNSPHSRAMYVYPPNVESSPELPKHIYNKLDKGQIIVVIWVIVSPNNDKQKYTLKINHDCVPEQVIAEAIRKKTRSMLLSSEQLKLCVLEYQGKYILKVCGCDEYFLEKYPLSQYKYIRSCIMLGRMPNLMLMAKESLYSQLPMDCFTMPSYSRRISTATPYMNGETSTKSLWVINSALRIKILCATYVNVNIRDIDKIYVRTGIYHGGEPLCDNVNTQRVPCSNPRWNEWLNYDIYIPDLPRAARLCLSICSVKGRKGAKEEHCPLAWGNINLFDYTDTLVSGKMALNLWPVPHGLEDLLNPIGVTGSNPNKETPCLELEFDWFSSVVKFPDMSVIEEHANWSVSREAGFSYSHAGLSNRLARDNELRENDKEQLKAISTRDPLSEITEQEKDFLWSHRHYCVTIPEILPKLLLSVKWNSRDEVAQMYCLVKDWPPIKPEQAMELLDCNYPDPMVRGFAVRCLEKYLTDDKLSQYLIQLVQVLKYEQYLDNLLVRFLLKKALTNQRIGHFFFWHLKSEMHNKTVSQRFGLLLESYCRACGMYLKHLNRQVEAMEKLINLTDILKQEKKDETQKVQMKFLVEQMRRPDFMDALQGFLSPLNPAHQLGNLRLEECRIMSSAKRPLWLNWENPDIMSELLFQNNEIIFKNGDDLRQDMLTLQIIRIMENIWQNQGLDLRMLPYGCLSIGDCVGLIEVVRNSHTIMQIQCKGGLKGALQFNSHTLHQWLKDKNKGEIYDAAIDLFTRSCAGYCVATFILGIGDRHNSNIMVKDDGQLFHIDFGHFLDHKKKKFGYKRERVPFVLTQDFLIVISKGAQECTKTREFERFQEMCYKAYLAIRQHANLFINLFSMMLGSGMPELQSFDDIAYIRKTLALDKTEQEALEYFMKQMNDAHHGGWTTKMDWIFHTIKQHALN

In patent US7928140B2, “Benzothiazole PI3 kinase modulators for cancer treatment” (Amgen Inc., priority 2007, dated 2011):

Target: T1, PI3K α (Homo sapiens, UniProt P42336)
T1 construct: Full length p110 subunits of PI3K α, β and δ, N-terminally labeled with polyHis tag; polyHis (N); made in house; host or cells: Sf9 insect cells (baculovirus)
Assay: In vitro PI3 kinase enzyme assay (alpha), ATP loss, bioluminescence;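 also: purified p110α/p85 heterodimer acting on PtdIns(4,5)P2 at room temperature, remaining ATP read by luminescence, inhibition scaled between compound-free wells with and without enzyme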
Format: biochemical
Details: read-out: PI3Kα ATP loss IC50
Description: The compound in DMSO (1 μL) was added per test well, and the inhibition relative to reactions containing no compound, with and without enzyme was determined.

Row | Structure (SMILES) | IC50
1 | COc1ccc(S(=O)(=O)Nc2cc(-c3ccc4nc(NC(C)=O)sc4c3)cnc2C)cc1 [Example 116, N-(6-(5-(((4-methoxyphenyl)sulfonyl)amino)-6-methyl-3-pyridinyl)-1,3-benzothiazol-2-yl)acetamide] | 7.5 nM
2 | CC(=O)Nc1nc2ccc(-c3cnc(Cl)c(NS(=O)(=O)c4cccc(F)c4)c3)cc2s1 [Example 183, N-(6-(6-chloro-5-(3-fluorophenylsulfonamido)pyridin-3-yl)benzo[d]thiazol-2-yl)acetamide] | 6.6 nM
3 | CC(=O)Nc1nc2ccc(-c3cccc(N(C)S(=O)(=O)c4ccc(C)cc4)n3)cc2s1 [Example 74, N-(6-(6-(N,4-Dimethylphenylsulfonamido)pyridin-2-yl)benzo[d]thiazol-2-yl)acetamide] | 32.9 nM
4 | COc1ccc(S(=O)(=O)Nc2cncc(-c3ccc4nc(NC(C)=O)sc4c3)n2)cc1 [Example 118, N-(6-(6-(((4-methoxyphenyl)sulfonyl)amino)-2-pyrazinyl)-1,3-benzothiazol-2-yl)acetamide] | 8.4 nM
5 | CC(=O)Nc1nc2ccc(-c3ccnc(Cl)n3)cc2s1 [Example 105, N-(6-(2-chloro-4-pyrimidinyl)-1,3-benzothiazol-2-yl)acetamide] | 1700 nM
6 | CC(=O)Nc1nc2ccc(-c3ccnc(NS(=O)(=O)c4ccc(F)cc4)n3)cc2s1 [Example 80, N-(6-(2-(((4-fluorophenyl)sulfonyl)amino)-4-pyrimidinyl)-1,3-benzothiazol-2-yl)acetamide] | 41.6 nM
7 | CC(=O)Nc1nc2ccc(-c3cnc(Cl)c(NS(=O)(=O)c4cccc(Cl)c4)c3)cc2s1 [Example 185, N-(6-(6-chloro-5-(3-chlorophenylsulfonamido)pyridin-3-yl)benzo[d]thiazol-2-yl)acetamide] | 6 nM
8 | COc1ccc(S(=O)(=O)Nc2cc(-c3ccc4nc(NC(C)=O)sc4c3)ccn2)cc1 [Example 217, N-(6-(2-(4-methoxyphenylsulfonamido)pyridin-4-yl)benzo[d]thiazol-2-yl)acetamide] | 67.1 nM
9 | CC(=O)Nc1nc2ccc(-c3ccnc(NS(=O)(=O)c4cccc(F)c4)n3)cc2s1 [Example 82, N-(6-(2-(((3-fluorophenyl)sulfonyl)amino)-4-pyrimidinyl)-1,3-benzothiazol-2-yl)acetamide] | 77.3 nM
10 | CC(=O)Nc1nc2ccc(-c3cnc(Cl)c(NS(=O)(=O)c4cccc(C(C)(C)C)c4)c3)cc2s1 [Example 173, N-(6-(5-(3-tert-butylphenylsulfonamido)-6-chloropyridin-3-yl)benzo[d]thiazol-2-yl)acetamide] | 6.1 nM
11 | COc1ccc(S(=O)(=O)Nc2cccc(-c3ccc4nc(NC(C)=O)sc4c3)c2)cc1 [Example 260, N-(6-(3-(4-methoxyphenylsulfonamido)phenyl)benzo[d]thiazol-2-yl)acetamide] | 94.8 nM
12 | CC(=O)Nc1nc2ccc(-c3cnc(Cl)c(NS(=O)(=O)c4ccc(C(C)(C)C)cc4)c3)cc2s1 [Example 191, N-(6-(5-(4-tert-butylphenylsulfonamido)-6-chloropyridin-3-yl)benzo[d]thiazol-2-yl)acetamide] | 3.6 nM

More lines, in order of falling IC50, values ahead:

Row | IC50 | Structure (SMILES)
13 | 283 nM | CCN(c1nccc(-c2ccc3nc(NC(C)=O)sc3c2)n1)S(=O)(=O)c1ccc(OC)cc1 [Example 89, N-(6-(2-(N-Ethyl-4-methoxyphenylsulfonamido)pyrimidin-4-yl)benzo[d]thiazol-2-yl)acetamide]
14 | 36.5 nM | CC(=O)Nc1nc2ccc(-c3ccnc(NS(=O)(=O)c4ccccc4F)n3)cc2s1 [Example 81, N-(6-(2-(((2-fluorophenyl)sulfonyl)amino)-4-pyrimidinyl)-1,3-benzothiazol-2-yl)acetamide]
15 | 7.8 nM | COc1ccc(S(=O)(=O)Nc2cncc(-c3ccc4nc(NC(C)=O)sc4c3)c2)cc1 [Example 195, N-(6-(5-(4-methoxyphenylsulfonamido)pyridin-3-yl)benzo[d]thiazol-2-yl)acetamide]
16 | 6.3 nM | CC(=O)Nc1nc2ccc(-c3cnc(Cl)c(NS(=O)(=O)c4cccc(C(F)(F)F)c4)c3)cc2s1 [Example 172, N-(6-(6-chloro-5-(3-(trifluoromethyl)phenylsulfonamido)pyridin-3-yl)benzo[d]thiazol-2-yl)acetamide]
17 | 4.9 nM | CC(=O)Nc1nc2ccc(-c3cnc(Cl)c(NS(=O)(=O)c4ccc(Cl)cc4)c3)cc2s1 [Example 180, N-(6-(6-chloro-5-(4-chlorophenylsulfonamido)pyridin-3-yl)benzo[d]thiazol-2-yl)acetamide]
18 | 4.9 nM | CC(=O)Nc1nc2ccc(-c3cnc(Cl)c(NS(=O)(=O)c4ccc(C(F)(F)F)cc4)c3)cc2s1 [Example 190, N-(6-(6-chloro-5-(4-(trifluoromethyl)phenylsulfonamido)pyridin-3-yl)benzo[d]thiazol-2-yl)acetamide]
